# Results from PubChem BioAssay (Tox21).
# Several values for one entry are separate records, joined by “and”; a condition that tells them apart may be missing. Entries that show only a call come without a potency. Identical values can stand only once. This is a selection; strong and weak results do not stand in their true shares. Results filed as inconclusive are left out. Activity calls are given as the source filed them. The call rests on the fitted dose curve; in most records, active means well fitted cell-killing curve with a large enough effect in the repeat runs; inconclusive means weak or mixed curves; inactive means flat fitted curve, though single readings scatter.
# Test: qHTS RealTime-Glo MT Cell Viability Assay in HepG2 cells - 32 hour (AID 1224877); further: nearly all actives have a fitted effect of over 55% in size
# Conditions: RealTime-Glo luminescence; series mostly up to 76.8 µM
# Source text: U.S. Tox21 Program National Center for Advancing Translational Sciences [NCATS] NIH Chemical Genomics Center [NCGC] U.S. Environmental Protection Agency [EPA] National Institutes of Environmental Health Sciences [NIEHS] National Toxicology Program [NTP] U.S. Food and Drug Administration [FDA] Tox21 Assay Overview: Measure of cell viability is critical in the cell-base assay. Analysis of cell viability is necessary for the characterization of cell responses to cytotoxic drugs and environmental stress. A RealTime-Glo MT Cell Viability Assay to monitor cell viability in real time of continues cell culture during 40 hours of compound treatment was used to screen Tox21 10K library compounds in HepG2 cells. The RealTime-Glo MT Cell Viability Assay is a nonlytic, homogeneous, bioluminescent method to measure cell viability in real time using a simple, plate-based method. The assay involves adding NanoLuc luciferase and a cell-permeant prosubstrate to cells in culture. Viable cells reduce the proprietary prosubstrate to generate a substrate for NanoLuc luciferase. This substrate diffuses from cells into the surrounding culture medium, where it is rapidly used by the NanoLuc Enzyme to produce a luminescent signal. The signal correlates with the number of viable cells, making the assay well suited for cytotoxicity studies.
# Tox21 Assay Protocol Summary: The mixture of HepG2 cell suspension and reagents were dispensed at 600cells/6 ul/well in 1536-well tissue culture treated black solid bottom plates using a Multidrop dispenser. After the assay plates were incubated at a 37 C/5% CO2 incubator for 5 hours, 23 nL of compounds dissolved in DMSO, positive and negative controls was transferred to the assay plate by a pintool work station. The plates were incubated at 37 C for 40 hours. The luminescence intensity were measured at 0h, 8h, 16h, 24h, 32h and 40h time points using ViewLux plate reader during compound treatment.
# Potency means the concentration at half of the fitted maximal effect.
Structure (SMILES),"activity change, negative = cytotoxic",Potency
CCC(C)(OOC(C)(C)C)OOC(C)(C)C,inactive: 10.6% [at 15.8 µM],
CCCCOP(OCCCC)OCCCC,,inactive
CCCCO[P+](=O)OCCCC,,inactive
O=[N+]([O-])c1ccc(S(=O)(=O)O)c([N+](=O)[O-])c1,,inactive
O=C(Cl)OCCOC(=O)Cl,,inactive
CCOP(=S)(CC)Sc1ccccc1 (configuration not stated),,inactive
CCOC(=O)Cl,,inactive
CCNC(C)Cc1ccc2c(c1)OCO2 (configuration not stated),,inactive
Cc1cc([N+](=O)[O-])c(O)c([N+](=O)[O-])c1,,inactive
O=P(Cl)(Cl)c1ccccc1,,inactive
CC(C)OP(=S)(OC(C)C)SCCNS(=O)(=O)c1ccccc1,,inactive
O=C(Cl)Oc1ccccc1,,inactive
O=P(Cl)(Oc1ccccc1)Oc1ccccc1,,inactive
CC(C)CCCCCCCOP(OCCCCCCCC(C)C)Oc1ccccc1,,inactive
O=C1C2CC=CCC2C(=O)N1SC(Cl)(Cl)C(Cl)Cl (configuration not stated),,active: 44 µM and active: 4.9 µM
ClP(Cl)c1ccccc1,,inactive
O=[p+]1oc2ccccc2c2ccccc21 (configuration not stated),,inactive
COP(=S)(Cl)OC,,inactive
NC(=O)Nc1ccc([As](=O)(O)O)cc1,,inactive
CN(C(=O)Cc1cccc2occc12)[C@H]1CC[C@@]2(CCCO2)C[C@@H]1N1CCCC1,,inactive
O=[P+](Oc1ccccc1)Oc1ccccc1,,inactive
CN(C(=O)Cc1ccccc1)[C@H]1CC[C@@]2(CCCO2)C[C@@H]1N1CCCC1,,inactive
CCCCC(CC)CO[P+](=O)OCC(CC)CCCC (configuration not stated),,inactive
CN(C(=O)Cc1ccc(Cl)c(Cl)c1)[C@H]1CC[C@@]2(CCCO2)C[C@@H]1N1CCCC1,,inactive
COC(=O)Cl,,inactive
O=[N+]([O-])c1ccc([N+](=O)[O-])cc1,,inactive
CN(N=O)C(=N)N[N+](=O)[O-],,inactive
